## Yeast mating assay 2: variants of the scFv Ab-91

Reference: Engelhart et al. 2022, doi:10.1038/s41597-022-01779-4. File: FLAb, binding data.

Antigen: PDVDLGDISGINAS, a 14-residue peptide of the SARS-CoV-2 spike HR2 region.

The variants keep the light chain, the linker and the frameworks of Ab-91 (scFv order VL, a (GGGGS)3 linker, VH).
VL: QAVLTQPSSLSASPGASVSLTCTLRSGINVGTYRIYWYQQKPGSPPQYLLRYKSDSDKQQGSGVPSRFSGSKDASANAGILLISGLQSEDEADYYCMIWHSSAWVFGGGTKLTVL
VH: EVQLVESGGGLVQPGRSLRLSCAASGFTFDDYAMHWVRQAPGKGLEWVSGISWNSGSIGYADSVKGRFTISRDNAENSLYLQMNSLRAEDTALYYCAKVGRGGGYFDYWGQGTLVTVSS

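The starting antibody came from a phage panning campaign against this peptide. AAYL51 was designed without a model: most single CDR substitutions and a random sample of double and triple ones. In AlphaSeq, yeast of one mating type display the scFv and yeast of the other type display the target. The frequency of each diploid, read from paired DNA barcodes, reflects how well the two displayed proteins bind. Each replicate has its own calibration line, from reference interactions of the BCL2 family. Each pool was mated in three replicate cultures.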

Each variant is given by its three heavy chain CDRs, as the data file delimits them; those of the parent are GFTFDDYAMH, GISWNSGSIGYADSVK, VGRGGGYFDY. Scale: log10 of Kd in nM, estimated from mating counts; low values are strong binders. Replicates are averaged; those with no signal do not enter the mean. Where no diploid with the target was found in that replicate, the entry reads "n.d.": below detection, most likely a poor binder, though not proof of it. For reference, the parent read 1.86 as the reference entry and 0.88 as a member of this library. Three control strains display no target. For library AAYL51, 21% of the pairings with them gave a signal, with a median of 4.54 and one signal in twenty below 3.26, so weak values seen in few replicates may be background. The control count says in how many pairings with the empty strains this scFv gave a signal, with their mean in brackets.

CDR-H1,CDR-H2,CDR-H3,"log10 Kd, replicates","log10 Kd (nM), mean",empty controls
GFTFDAYHMH,GISWNSGSIGSADSVK,VGRGGGYFDY,3.26 / n.d. / n.d.,3.26,1 of 9 (2.34)
GFTFDDYAMW,GISWNSGSIGYADLVK,VGRGGKYFDY,n.d. / 5.47 / n.d.,5.47,0 of 9
GFTFDDYAMH,GISWNSGSIGYAGSVK,VGRGGGYFDS,2.60 / 2.40 / 2.47,2.49,1 of 9 (3.95)
GFTFDDYAMH,GISWNSGSIGYADSVK,VGRGWGYCDD,n.d. / n.d. / n.d.,n.d.,1 of 9 (2.63)
GFTSDDNAMH,GISWNSGSIGYADSVK,GGRGGGYFDY,n.d. / n.d. / n.d.,n.d.,0 of 9
GFTFDDYAMH,GISWNSGSILYADSVK,VGRGGGWFDY,n.d. / 5.01 / 4.28,4.64,1 of 9 (4.44)
GFTFDDWAMH,GITWNSGSIGYADSVK,YGRGGGYFDY,n.d. / n.d. / n.d.,n.d.,0 of 9
GFEFDDYAMH,GIPVNSGSIGYADSVK,VGRGGGYFDY,n.d. / n.d. / n.d.,n.d.,0 of 9
GFTFDCYAMH,GRSWNSGAIGYADSVK,VGRGGGYFDY,n.d. / n.d. / n.d.,n.d.,3 of 9 (5.24)
GFKVDDYAMH,GIEWNSGSIGYADSVK,VGRGGGYFDY,n.d. / n.d. / n.d.,n.d.,0 of 9
GFTFDDYAFH,GISWNSGSIGYADAVK,VGRGGGYFDV,1.42 / 1.44 / 0.87,1.25,3 of 9 (4.25)
GGTFDDYAMH,GISWLSGSIGYADSVK,VGVGGGYFDY,n.d. / n.d. / n.d.,n.d.,0 of 9
GFTFDDYAMH,GISWNSGSIGYADSVK,VGRAGGYFDL,1.80 / 1.81 / 1.34,1.65,1 of 9 (3.53)
LFTFDDYAMW,GISWNSGSIGYADSVK,VGRGGCYFDY,4.44 / n.d. / 5.04,4.74,3 of 9 (4.94)
GFTFDDYAMD,GISWNSGSIGYALSVK,VGRGGGYFDF,n.d. / n.d. / n.d.,n.d.,1 of 9 (2.95)
GFTFADYAMH,GISWNSGSIGYADSVF,VGRGGGYSDY,3.65 / n.d. / n.d.,3.65,2 of 9 (3.92)
GFTFDDYAMH,GISHQSGYIGYADSVK,VGRGGGYFDY,3.94 / n.d. / n.d.,3.94,2 of 9 (3.65)
GFTFDDYAMK,GISWNSGSIGVADSVK,KGRGGGYFDY,n.d. / 5.36 / 4.92,5.14,2 of 9 (5.13)
GFTFDDYAMV,GIIWNSFSIGYADSVK,VGRGGGYFDY,n.d. / n.d. / n.d.,n.d.,1 of 9 (3.63)
GFTFDDYAMH,GDSWWSGSIGYADSVK,VGRGGSYFDY,n.d. / n.d. / n.d.,n.d.,2 of 9 (3.58)
GFTFDDYSMH,GISWNSGMIGYADSVK,VGRGGGYFDY,3.22 / 3.27 / 2.78,3.09,0 of 9
GFTFDFYAMH,GISWNSGSIGYADSVK,VCRGGGYFDC,n.d. / 5.63 / n.d.,5.63,2 of 9 (4.00)
GFTFDPYAMH,GISWNSGCIGYADSVK,VGRGGGYFDK,n.d. / n.d. / n.d.,n.d.,2 of 9 (4.55)
GFTFDDMAAH,GISWNSGSMGYADSVK,VGRGGGYFDY,n.d. / n.d. / n.d.,n.d.,0 of 9
GFTFDDYCMH,GINWNSGSIGYADSVK,VGRGGGQFDY,n.d. / n.d. / n.d.,n.d.,2 of 9 (4.54)
GFTFDDYAFH,GISWNSGSIYYADSVG,VGRGGGYFDY,n.d. / n.d. / 3.74,3.74,0 of 9
GFTFDDYAMH,GIGWNSGHIGYADSVK,VGDGGGYFDY,3.56 / n.d. / 4.78,4.17,1 of 9 (3.58)
GFTNDDYAMH,GLSWNSGSIGYADSVY,VGRGGGYFDY,n.d. / n.d. / n.d.,n.d.,0 of 9
CFTFDDYAMH,GISWNSGSIGYADSVK,VQRGGGYFDY,n.d. / 4.12 / n.d.,4.12,1 of 9 (4.88)
GFTFDDYAMH,GTSWNSGSIGYADSVK,VGRGGGMFDP,3.99 / n.d. / 3.62,3.80,1 of 9 (3.79)
GFTFDDYAMH,GISWNHGSIGYADRVK,VGRGGGYFVY,n.d. / n.d. / n.d.,n.d.,0 of 9
GFTFDDYAMH,GVSWNSVSIGYADSVK,VGRGPGYFDY,n.d. / n.d. / n.d.,n.d.,1 of 9 (3.37)
GFTEDDYAML,GISWNSGSIGYADSVK,VGEGGGYFDY,n.d. / n.d. / n.d.,n.d.,0 of 9
GFTFDDYAML,GISWNSGSTGYADAVK,VGRGGGYFDY,n.d. / n.d. / n.d.,n.d.,0 of 9
GFTFDDYAMV,GISWNSVSIGYADSVK,VGRGIGYFDY,n.d. / 4.50 / 2.78,3.64,1 of 9 (4.30)
GFTFWDYAMH,GISWNSGSIHYADSVK,VGTGGGYFDY,n.d. / n.d. / n.d.,n.d.,0 of 9
GFTFDDYAMH,GISWNSGSIGCADSVK,VGRGGGYFDY,n.d. / n.d. / n.d.,n.d.,1 of 9 (3.97)
GFTIDDYAMH,GMSWNSGSIGYADSVK,VGRGWGYFDY,3.90 / 4.67 / 4.68,4.42,5 of 9 (4.38)
AFTFDDYAMH,GISWNSGSIRYADSVK,VGRKGGYFDY,4.61 / 4.45 / 5.21,4.76,3 of 9 (5.16)
GFTFDDYADH,GISWNSGSIGYADSVK,VGRGGGYFDY,n.d. / n.d. / n.d.,n.d.,0 of 9
GFTFDDYAMH,GISWRSGSIQYADSVK,VGRGGPYFDY,n.d. / n.d. / n.d.,n.d.,1 of 9 (3.86)
GFTFDDYAMH,GHSWNSGSFGYADSVK,VGKGGGYFDY,4.41 / 4.10 / 5.21,4.57,2 of 9 (5.42)
GFTFDDYAMH,GLSWNSGSIGYNDIVK,VGRGGGYFDY,3.63 / 3.14 / 3.00,3.26,0 of 9
GFTFDDYAMH,NISWNSGSTGYADSKK,VGRGGGYFDY,n.d. / n.d. / 5.05,5.05,2 of 9 (4.45)
GFTFDDYAMH,GDSWNSGSIGYADSVK,VGRGGGYDWY,n.d. / 4.71 / n.d.,4.71,0 of 9
GFTFDDYVMH,GISWNSYSIGEADSVK,VGRGGGYFDY,n.d. / n.d. / n.d.,n.d.,0 of 9
GFTFDDYLMH,GISWNSGSIGYADSVK,VGRGHGYCDY,3.86 / 4.00 / n.d.,3.93,3 of 9 (5.14)
GFTFDDYAYH,GMSWNSGSIGYADSVK,VGRGGGYLDY,n.d. / n.d. / 4.33,4.33,0 of 9

For reference, 6 entries of the list once more:

CDR-H1,CDR-H2,CDR-H3,"log10 Kd, replicates","log10 Kd (nM), mean",empty controls
GFTFDDYAMH,GIGWNSGHIGYADSVK,VGDGGGYFDY,3.56 / n.d. / 4.78,4.17,1 of 9 (3.58)
GFTFDDYCMH,GINWNSGSIGYADSVK,VGRGGGQFDY,n.d. / n.d. / n.d.,n.d.,2 of 9 (4.54)
GFTFDDYAMH,GISWNSGSIGCADSVK,VGRGGGYFDY,n.d. / n.d. / n.d.,n.d.,1 of 9 (3.97)
GFTFDDYAFH,GISWNSGSIYYADSVG,VGRGGGYFDY,n.d. / n.d. / 3.74,3.74,0 of 9
GFTFDDYAMH,GDSWWSGSIGYADSVK,VGRGGSYFDY,n.d. / n.d. / n.d.,n.d.,2 of 9 (3.58)
GFTFDCYAMH,GRSWNSGAIGYADSVK,VGRGGGYFDY,n.d. / n.d. / n.d.,n.d.,3 of 9 (5.24)